Experimental data as given in patent US20020160975A1, “Conserved XIAP-interaction motif in caspase-9 and Smac/DIABLO for mediating apoptosis” (Thomas Jefferson University, priority 2001, published 2002).

Assays:
[1] = molecular target: T1, holoenzyme containing the WT caspase-9 (Homo sapiens, UniProt P55211); experiment: XIAP inhibition of procaspase-3 processing by Apaf-1-caspase-9 holoenzyme; assay type: biochemical; conditions: increasing amounts of XIAP; Apaf-1 20 nM
T1 construct: 6-Histidine (C); made in house; host or cells: Escherichia coli BL21 (DE3)
Procedure: (§1) Given that both processed and unprocessed caspase-9-Apaf-1 holoenzyme complexes are catalytically active, it was determined whether XIAP could inhibit them equally.

[2] = molecular target: T2, holoenzyme containing the mutant caspase-9 (Homo sapiens, UniProt P55211, D315A/D330A/E306A); experiment: as above; assay type: biochemical; conditions: increasing amounts of XIAP; Apaf-1 20 nM
T2 construct: His tag (purified on Talon resin); made in house; host or cells: bacteria (E. coli stated for the WT protein)
T2 sequence (P55211 1-416 E306A/D315A/D330A): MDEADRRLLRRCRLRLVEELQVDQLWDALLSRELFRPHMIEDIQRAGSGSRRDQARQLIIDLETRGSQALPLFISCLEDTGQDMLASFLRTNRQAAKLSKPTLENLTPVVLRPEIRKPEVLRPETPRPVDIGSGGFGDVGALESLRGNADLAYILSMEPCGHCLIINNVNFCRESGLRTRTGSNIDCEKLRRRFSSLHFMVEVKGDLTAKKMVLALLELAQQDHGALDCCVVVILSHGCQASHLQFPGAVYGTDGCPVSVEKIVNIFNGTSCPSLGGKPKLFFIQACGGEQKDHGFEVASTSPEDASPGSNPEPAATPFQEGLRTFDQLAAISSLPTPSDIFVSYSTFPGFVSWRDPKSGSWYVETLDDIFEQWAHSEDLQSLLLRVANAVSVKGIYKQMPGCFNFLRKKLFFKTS
T2 sequence (O14727 1-1248 partner): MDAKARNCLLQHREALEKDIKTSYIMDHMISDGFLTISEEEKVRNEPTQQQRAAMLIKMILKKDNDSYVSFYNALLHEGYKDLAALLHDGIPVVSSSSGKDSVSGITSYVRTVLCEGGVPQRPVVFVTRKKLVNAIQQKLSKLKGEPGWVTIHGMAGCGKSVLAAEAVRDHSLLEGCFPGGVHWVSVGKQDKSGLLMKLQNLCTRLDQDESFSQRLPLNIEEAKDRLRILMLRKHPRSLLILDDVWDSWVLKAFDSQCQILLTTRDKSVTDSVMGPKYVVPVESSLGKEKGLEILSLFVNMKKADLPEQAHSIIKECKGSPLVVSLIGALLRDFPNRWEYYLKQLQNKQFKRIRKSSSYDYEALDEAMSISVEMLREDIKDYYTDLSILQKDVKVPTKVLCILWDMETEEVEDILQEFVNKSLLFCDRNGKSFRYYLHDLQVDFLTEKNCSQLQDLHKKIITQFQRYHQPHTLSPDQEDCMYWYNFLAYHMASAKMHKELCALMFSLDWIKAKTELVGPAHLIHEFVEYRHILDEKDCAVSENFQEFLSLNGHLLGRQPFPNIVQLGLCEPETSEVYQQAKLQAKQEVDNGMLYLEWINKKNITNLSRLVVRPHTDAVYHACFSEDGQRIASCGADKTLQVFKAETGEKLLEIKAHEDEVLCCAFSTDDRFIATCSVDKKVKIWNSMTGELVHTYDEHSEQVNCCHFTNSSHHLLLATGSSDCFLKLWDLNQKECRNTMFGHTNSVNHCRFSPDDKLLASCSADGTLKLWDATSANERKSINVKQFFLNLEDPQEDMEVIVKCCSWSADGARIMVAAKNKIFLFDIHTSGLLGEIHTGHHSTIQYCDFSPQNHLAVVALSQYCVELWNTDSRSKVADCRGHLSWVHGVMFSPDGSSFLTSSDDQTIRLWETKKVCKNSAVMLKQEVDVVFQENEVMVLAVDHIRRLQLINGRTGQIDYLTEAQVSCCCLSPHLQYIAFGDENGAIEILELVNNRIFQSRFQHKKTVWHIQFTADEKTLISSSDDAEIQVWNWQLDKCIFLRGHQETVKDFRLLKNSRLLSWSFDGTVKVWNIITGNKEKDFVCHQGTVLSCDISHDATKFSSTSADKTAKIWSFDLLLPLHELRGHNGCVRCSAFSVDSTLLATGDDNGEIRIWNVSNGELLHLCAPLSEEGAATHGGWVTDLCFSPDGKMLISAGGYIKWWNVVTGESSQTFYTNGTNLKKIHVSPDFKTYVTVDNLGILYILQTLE
T2 sequence (P99999 2-105 partner limits assumed): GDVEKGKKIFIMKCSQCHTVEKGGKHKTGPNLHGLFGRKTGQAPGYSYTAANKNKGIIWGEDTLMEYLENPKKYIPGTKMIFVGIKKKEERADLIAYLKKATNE
Procedure: as §1

Substance: XIAP: X-linked inhibitor of apoptosis protein
- inhibition of processing of procaspase-3 by holoenzyme containing WT caspase-9 [1]: completely inhibited
- inhibition of processing of procaspase-3 by holoenzyme containing mutant caspase-9 [2]: did not significantly inhibit
